Laboratory results: ChEMBL document CHEMBL1134533, “Design, synthesis, computational prediction, and biological evaluation of ester soft drugs as inhibitors of dihydrofolate reductase from Pneumocystis carinii” (J Med Chem, 2001)
pIC50: −log10 of the molar value.

biological target: T1, Dihydrofolate reductase (Pneumocystis carinii, UniProt P16184)
T1 sequence (P16184 whole entry): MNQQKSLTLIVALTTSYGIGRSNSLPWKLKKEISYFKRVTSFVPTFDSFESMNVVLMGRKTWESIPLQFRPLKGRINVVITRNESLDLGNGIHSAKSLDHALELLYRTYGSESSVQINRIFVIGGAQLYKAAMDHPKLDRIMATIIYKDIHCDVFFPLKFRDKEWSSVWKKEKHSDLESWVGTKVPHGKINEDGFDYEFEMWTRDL

Structure (SMILES)	pIC50
Cc1c(CO)cnc2nc(N)nc(N)c12	4.98
Nc1nc(N)c2cc(COC(=O)Cc3ccccc3)ccc2n1	4.95
Nc1nc(N)c2cc(/C=C/C(=O)Oc3ccccc3)ccc2n1	5.68
COc1ccc(OC)c(Cc2cnc3nc(N)nc(N)c3c2C)c1 [PIRITREXIM]	7.47
